The values that follow come from patent US5049694A, “Pharmaceutical composition having relaxing activity which contains a nitrate ester as active substance” (Cedona Pharmaceuticals B.V., priority 1988, dated 1991).

For data set [1], the system named is contracted strips of the rats' arota. The data set can be described thus: relaxing potency in vitro on phenylefrine-contracted strips of rat aorta. It counts as cell-based, rat (male Wistar). Conditions: read-out: EC50 (concentration with which relaxation took place up to 50% of the contraction induced by 10^-7 M phenylefrine); rat thoracal aorta strips, contracted with 10^-7 M phenylefrine, cumulative concentrations, 37° C. How it is done: The relaxing potency of the compounds as described is tested in vitro on contracted strips of the rats' arota. Male Wistar rates (200-220 g) are killed by decapitation. The thoracal aorta is removed and is helically cut into strips (length: ±10 mm, width: ±2 mm; 4 strips per rat).
The strips are suspended in organ baths filled with 20 ml of Krebs' medium with a constant temperature of 37° C. passing through O2 /CO2 (95/5) and subsequently for 2 h equilibrated under an isotonic load of 500 mg. The medium is renewed every 20 minutes.
After equilibration contraction takes place by addition of 10^-7M phenylefrine to the medium. After reaching the maximal contraction the composition with the organic nitrate ester to be tested in cumulative concentration steps is relaxed.
The degree of relaxation is expressed as a percentage of the maximal contraction (=100%) reached with 10^-7 M phenylefrine. The relaxing potency of the tested compounds is expressed as the EC50 : the concentration with which relaxation took place up to 50% of the contraction induced by 10^-7 M phenylefrine. From a number of compounds the EC50 -values have been stated in Table 1. For comparison the EC50 -values of glyceryltrinitrate and isosorbidedinitrate have also been included.

Another data set relates to heart. The conditions noted are these: therapeutical use; cited from earlier work.
The conditions of data set [2]: chronical administration, clinical; cited from earlier work.

For `O=[N+]([O-])OC1CCCCC1O[N+](=O)[O-]` (stereo not shown), the EC50 in data set [1] is 3000 nM.
Still for that read-out and setting: for `O=[N+]([O-])OCCCCCO[N+](=O)[O-]` the value was 35 nM.
For the molecule `O=[N+]([O-])O[C@H]1CO[C@H]2[C@@H]1OC[C@H]2O[N+](=O)[O-]`, in data set [1], the EC50 stood at 560 nM. Further, in the data set with heart, the “need of oxygen to the heart” value is given as “lower need of oxygen to the heart”; the “post-load of the heart” value is recorded as “also affected, be it to a lower extent”; the “pre-load of the heart” value was “diminish especially the pre-load of the heart”. The development of tolerance result in data set [2] is on record as “development of so-called tolerance”.
